Sequences of proteins named here, by UniProt entry; tags and fusion partners are left off. Residues count along the entry.
UniProt P20395, 18-692 limits assumed: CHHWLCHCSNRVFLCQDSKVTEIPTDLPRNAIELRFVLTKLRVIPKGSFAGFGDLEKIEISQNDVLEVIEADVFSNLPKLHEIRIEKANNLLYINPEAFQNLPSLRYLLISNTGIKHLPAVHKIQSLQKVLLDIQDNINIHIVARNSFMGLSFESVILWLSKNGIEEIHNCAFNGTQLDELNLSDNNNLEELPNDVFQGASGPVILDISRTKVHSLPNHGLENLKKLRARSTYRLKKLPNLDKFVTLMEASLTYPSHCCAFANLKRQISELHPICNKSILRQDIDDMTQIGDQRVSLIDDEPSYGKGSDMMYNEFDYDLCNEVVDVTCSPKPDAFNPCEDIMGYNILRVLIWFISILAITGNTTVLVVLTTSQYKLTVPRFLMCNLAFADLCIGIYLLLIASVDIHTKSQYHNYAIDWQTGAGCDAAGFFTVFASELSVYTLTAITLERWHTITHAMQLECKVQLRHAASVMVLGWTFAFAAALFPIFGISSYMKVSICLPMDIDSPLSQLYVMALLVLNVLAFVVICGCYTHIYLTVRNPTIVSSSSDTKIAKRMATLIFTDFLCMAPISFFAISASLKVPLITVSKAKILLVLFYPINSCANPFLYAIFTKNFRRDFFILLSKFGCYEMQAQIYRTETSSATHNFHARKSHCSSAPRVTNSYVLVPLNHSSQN

The test addresses rat follicle stimulating hormone receptor (rFSHR) (Rattus norvegicus, UniProt P20395). The test is described as follows: Intracellular cAMP measurement (HTRF) assay, antagonism of EC70 of hFSH. As to conditions: read-out: Class (IC50 to antagonise an EC70 of FSH receptors agonist such as hFSH), HEK293 cells expressing rFSHR, 1 ng/ml hFSH (EC70). An excerpt:
Intracellular cAMP Measurement Assay
The Intracellular cAMP measurement assay is a functional cell-based assay used to study GPCR function. This method relies on a Time-Resolved Fluorescence (HTRF) assay to measure the cAMP accumulation upon receptor-mediated Gs protein activation in cells expressing recombinant GPCR or in cells from native tissues. In brief, this method is a competitive immunoassay between native cAMP produced by cells and the cAMP labeled with a fluorescent tag. The endogenously produced cAMP competes with exogenous added d2-labelled cAMP for the cAMP binding site on a Eu3+ cryptate labelled anti-cAMP antibody. The d2-labelled cAMP and the Eu^3+ labelled antibody produces a basal fluroresence via HTRF and therefore an intracellular increase in unlabelled cAMP is detected as decrease in this signal. cAMP is one of the most important intracellular mediators. Its concentration in cells can be increased upon binding of many hormones to their receptors. The most studied pathway consists in the release of α-subunit GTP-binding proteins following ligand-receptor interaction, which in turn activates or inhibits the ATP/cAMP conversion function of adenylate cyclase enzyme. cAMP is then involved in many complex regulatory processes such as protein kinase activation or ion channel gating. This method is widely used to study receptor activation of G protein in cells over-expressing GPCRs or in native cells, including FSH receptors expressing cells (Gabriel et al., Assay Drug Dev. Technol., 1, 291-303, 2003).
Transfection and cell culture: The cDNA encoding the rat follicle stimulating hormone receptor (rFSHR), (accession number NM_199237, NCBI Nucleotide database browser) was subcloned into an expression vector containing also the hygromycin resistance gene. Transfection of this vector into HEK293 cells with PolyFect reagent (Qiagen) according to supplier's protocol, and hygromycin treatment allowed selection of antibiotic resistant cells which had integrated stably one or more copies of the plasmid. Positive cellular clones expressing rFSHR were identified in a functional assay measuring cAMP production in cells following stimulation by addition of purified human follicle stimulating hormone (hFSH).
HTRF cAMP assay: On the day of the experiment, cells were detached from the Petri dish and distributed in a low volume, black-walled 384-well plate at a density of 5,000 cells/well in an assay buffer containing 1 mM IBMX to prevent cAMP degradation by cytoplasmic phosphodiesterases. The determination of the cAMP accumulation was performed using an HTRF assay (Trinquet et al., Anal. Biochem., 358, 126-135, 2006). Briefly, cells were incubated for 3 min in the presence of increasing concentrations of negative allosteric modulators (from 1 nM to 60 μM) and then 30 min in the presence of 1 ng/ml of hFSH, an agonist of rat FSH receptor, that has been determined in previous experiments to correspond to the EC70, a concentration that gives 70% of the maximal response of the agonist, and is in accordance with published data (Fox et al., Mol. Endocrin., 15, 378-389, 2001). […] Cells were then lysed by adding the HTRF assay components, the europium cryptate-labeled anti-cAMP antibody, and the XL665-labeled cAMP analog, previously diluted in a HEPES buffer (50 mM, pH 7.0) containing 0.8 M potassium fluoride, 0.2% (w/v) BSA, and 1% (v/v) Triton X-100, a percentage of detergent that ensure complete cell lysis. Assay was then incubated for 1 hr at room temperature, and HTRF signal was measured after excitation at 337 nm, and dual emission at 620 and 665 nm, using a RubyStar fluorimeter (BMG Labtechnologies). Moreover, the fluorescence ratio of an appropriate range of known concentrations of cAMP standards was also included on each assay plate to produce a standard cAMP curve. […]
Consider `COc1ccc(C(=O)Nc2ccc(C(C)(C)CNC(=O)c3c[nH]c4c(F)nccc34)cc2)cc1OC`, for which the IC50 was 150 to 400 nM.
Take `COc1ccc(C(=O)Nc2ccc(C(C)(C)CNC(=O)Cn3ccc4cc(F)ccc43)cc2)cc1OC`: the IC50 is under 150 nM.
In the case of `COc1ccc(C(=O)Nc2ccc(C(C)(C)CNC(=O)c3n[nH]c4ccc(F)cc34)cc2)cc1OC`, the IC50 was under 150 nM.
`COc1ccc(C(=O)Nc2ccc(C(C)(C)CNC(=O)c3c[nH]c4cnc(Cl)cc34)cc2)cc1OC`: the IC50 lay in the range of 150 to 400 nM.
As to `COc1ccc(C(=O)Nc2ccc(C(C)(C)CNC(=O)c3c[nH]c4cnc(F)cc34)cc2)cc1OC`, the IC50 was under 150 nM.
As for `COc1ccc(C(=O)Nc2ccc(C(C)(C)CNC(=O)c3cnc4[nH]cnc4c3)cc2)cc1OC`, the figure is over 1000 nM; as for `COc1ccc(C(=O)Nc2ccc(C(C)(C)CNC(=O)c3nc4cccnc4[nH]3)cc2)cc1OC`, 400 to 1000 nM.

For the origin of these results see patent US20100249123A1, “NOVEL BENZAMIDE DERIVATIVES AS MODULATORS OF THE FOLLICLE STIMULATING HORMONE” (ADDEX PHARMA SA, priority 2007, published 2010).
